Laboratory results: patent publication US7759499B2, “Compounds as inhibitors of hepatitis C virus NS3 serine protease” (Schering Corporation, priority 2004, dated 2010)

Sequences of proteins named here, by UniProt entry; tags and fusion partners are left off. Residues count along the entry.
UniProt P27958, 1027-1657: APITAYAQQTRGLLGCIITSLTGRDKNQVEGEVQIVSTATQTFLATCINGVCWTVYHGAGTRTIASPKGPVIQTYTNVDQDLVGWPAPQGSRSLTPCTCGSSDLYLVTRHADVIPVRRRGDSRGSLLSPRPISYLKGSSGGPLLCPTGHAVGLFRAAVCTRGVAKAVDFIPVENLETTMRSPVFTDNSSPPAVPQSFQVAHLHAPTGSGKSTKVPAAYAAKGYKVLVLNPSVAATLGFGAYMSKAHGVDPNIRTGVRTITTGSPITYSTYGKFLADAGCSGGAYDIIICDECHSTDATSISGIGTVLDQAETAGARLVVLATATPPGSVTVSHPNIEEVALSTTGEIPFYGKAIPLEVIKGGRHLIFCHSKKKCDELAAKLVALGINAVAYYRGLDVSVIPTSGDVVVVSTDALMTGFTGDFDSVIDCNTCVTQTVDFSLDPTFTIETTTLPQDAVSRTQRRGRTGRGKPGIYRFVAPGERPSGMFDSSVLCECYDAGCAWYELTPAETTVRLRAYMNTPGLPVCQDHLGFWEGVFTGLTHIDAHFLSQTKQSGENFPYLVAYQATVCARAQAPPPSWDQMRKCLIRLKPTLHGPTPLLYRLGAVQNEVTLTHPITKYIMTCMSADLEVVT
UniProt P27958, 1658-1711: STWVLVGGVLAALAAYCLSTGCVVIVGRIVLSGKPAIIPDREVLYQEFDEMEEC

molecular target: Recombinant heterodimeric HCV NS3/NS4A protease (strain 1a) (Hepatitis C virus genotype 1a, UniProt P27958); test: Spectrophotometric assay for HCV protease inhibitory activity; assay type: biochemical; conditions: Table 2, range

CCCC(NC(=O)[C@@H]1[C@@H]2[C@H](CN1C(=O)[C@@H](NC(=O)N[C@H](CN(C)S(=O)(=O)C(C)(C)C)C(C)(C)C)C(C)(C)C)C2(C)C)C(=O)C(N)=O (some centres unmarked) [Compound 11212] and CCCC(NC(=O)[C@@H]1[C@@H]2[C@H](CN1C(=O)[C@@H](NC(=O)N[C@H](CN(C)S(C)(=O)=O)C(C)(C)C)C(C)(C)C)C2(C)C)C(=O)C(N)=O (some centres unmarked) [Compound 11257] cannot be ordered by pKi: at least 7.12 for the first, at least 7.12 for the second.

C=CCNC(=O)C(=O)C(CCCC)NC(=O)[C@@H]1[C@@H]2[C@H](CN1C(=O)[C@@H](NC(=O)N[C@H](CN(C)S(=O)(=O)C(C)(C)C)C(C)(C)C)C(C)(C)C)C2(C)C (some centres unmarked) [Compound 11213] and CCCCC(NC(=O)[C@@H]1[C@@H]2[C@H](CN1C(=O)[C@@H](NC(=O)N[C@H](CN(C)S(=O)(=O)C(C)(C)C)C(C)(C)C)C(C)(C)C)C2(C)C)C(=O)C(=O)NCC (some centres unmarked) [Compound 11215] fall in the same range of pKi: 6.60 to 7.12 for the first, 6.60 to 7.12 for the second.

C=CCNC(=O)C(=O)C(CC=C)NC(=O)[C@@H]1[C@@H]2[C@H](CN1C(=O)[C@@H](NC(=O)N[C@H](CN(C)S(=O)(=O)C(C)(C)C)C(C)(C)C)C(C)(C)C)C2(C)C (some centres unmarked) [Compound 11214] and C#CCCC(NC(=O)[C@@H]1[C@@H]2[C@H](CN1C(=O)[C@@H](NC(=O)N[C@H](CN(C)S(=O)(=O)C(C)(C)C)C(C)(C)C)C(C)(C)C)C2(C)C)C(=O)C(=O)NCC=C (some centres unmarked) [Compound 11219] cannot be ordered by pKi: at least 7.12 for the first, at least 7.12 for the second.

CCCC(NC(=O)[C@@H]1[C@@H]2[C@H](CN1C(=O)[C@@H](NC(=O)N[C@H](CN(C)S(=O)(=O)C(C)(C)C)C(C)(C)C)C(C)(C)C)C2(C)C)C(=O)C(=O)NCC (some centres unmarked) [Compound 11216] and C=CCNC(=O)C(=O)C(CCCC)NC(=O)[C@@H]1[C@@H]2[C@H](CN1C(=O)[C@@H](NC(=O)N[C@H](CN(C)S(=O)(=O)c1ccccn1)C(C)(C)C)C(C)(C)C)C2(C)C (some centres unmarked) [Compound 11218] cannot be ordered by pKi: 6.60 to 7.12 for the first, at least 7.12 for the second.

CC(C)[C@@H](CN(C)S(=O)(=O)c1ccccc1)NC(=O)N[C@H](C(=O)N1C[C@H]2[C@@H]([C@H]1C(=O)NC(CC1CCC1)C(=O)C(N)=O)C2(C)C)C(C)(C)C (some centres unmarked) [Compound 11217] and CCCC(NC(=O)[C@@H]1[C@@H]2[C@H](CN1C(=O)[C@@H](NC(=O)N[C@H](CN(C)S(=O)(=O)c1ccccc1)CC(C)(C)C)C(C)(C)C)C2(C)C)C(=O)C(N)=O (some centres unmarked) [Compound 11250] cannot be ordered by pKi: at least 7.12 for the first, at least 7.12 for the second.

C=CCNC(=O)C(=O)C(CC1CCC1)NC(=O)[C@@H]1[C@@H]2[C@H](CN1C(=O)[C@@H](NC(=O)N[C@H](CN(CC)S(=O)(=O)c1cccs1)C(C)(C)C)C(C)(C)C)C2(C)C (some centres unmarked) [Compound 11220] and C=CCNC(=O)C(=O)C(CC1CC1)NC(=O)[C@@H]1[C@@H]2[C@H](CN1C(=O)[C@@H](NC(=O)N[C@H](CN(CC)S(=O)(=O)c1cccs1)C(C)(C)C)C(C)(C)C)C2(C)C (some centres unmarked) [Compound 11222] cannot be ordered by pKi: at least 7.12 for the first, at least 7.12 for the second.

CCN(C[C@@H](NC(=O)N[C@H](C(=O)N1C[C@H]2[C@@H]([C@H]1C(=O)NC(CC1CCC1)C(=O)C(N)=O)C2(C)C)C(C)(C)C)C(C)(C)C)S(=O)(=O)c1cccs1 (some centres unmarked) [Compound 11221] and CC(C)(C)[C@H](NC(=O)N[C@H](CN(CC1CC1)S(=O)(=O)c1cccs1)C(C)(C)C)C(=O)N1C[C@H]2[C@@H]([C@H]1C(=O)NC(CC1CCC1)C(=O)C(N)=O)C2(C)C (some centres unmarked) [Compound 11245] cannot be ordered by pKi: at least 7.12 for the first, at least 7.12 for the second.

C=CCNC(=O)C(=O)C(CCCC)NC(=O)[C@@H]1[C@@H]2[C@H](CN1C(=O)[C@@H](NC(=O)N[C@H](CN(CC)S(=O)(=O)c1cccs1)C(C)(C)C)C(C)(C)C)C2(C)C (some centres unmarked) [Compound 11223] and C=CCNC(=O)C(=O)C(CCCC)NC(=O)[C@@H]1[C@@H]2[C@H](CN1C(=O)[C@@H](NC(=O)N[C@H](CN(CC1CC1)S(=O)(=O)c1cccs1)C(C)(C)C)C(C)(C)C)C2(C)C (some centres unmarked) [Compound 11244] cannot be ordered by pKi: at least 7.12 for the first, at least 7.12 for the second.

C=CCNC(=O)C(=O)C(CC1CC1)NC(=O)[C@@H]1[C@@H]2[C@H](CN1C(=O)[C@@H](NC(=O)N[C@H](CN(C)S(=O)(=O)c1cccs1)C(C)(C)C)C1CCCC1)C2(C)C (some centres unmarked) [Compound 11224] and C=CCNC(=O)C(=O)C(CCC)NC(=O)[C@@H]1[C@@H]2[C@H](CN1C(=O)[C@@H](NC(=O)N[C@H](CN(C)S(=O)(=O)c1cccs1)C(C)(C)C)C1CCCC1)C2(C)C (some centres unmarked) [Compound 11225] cannot be ordered by pKi: 6.60 to 7.12 for the first, at least 7.12 for the second.

C=CCNC(=O)C(=O)C(CCC(F)(F)F)NC(=O)[C@@H]1[C@@H]2[C@H](CN1C(=O)[C@@H](NC(=O)N[C@H](CN(C)S(=O)(=O)c1cccs1)C(C)(C)C)C1CCCC1)C2(C)C (some centres unmarked) [Compound 11226] and C=CCNC(=O)C(=O)C(CCCC)NC(=O)[C@@H]1[C@@H]2[C@H](CN1C(=O)[C@@H](NC(=O)N[C@H](CN(C)S(=O)(=O)c1cccs1)C(C)(C)C)C1CCCC1)C2(C)C (some centres unmarked) [Compound 11228] cannot be ordered by pKi: at least 7.12 for the first, at least 7.12 for the second.

CCCCC(NC(=O)[C@@H]1[C@@H]2[C@H](CN1C(=O)[C@@H](NC(=O)N[C@H](CN(C)S(=O)(=O)c1cccs1)C(C)(C)C)C1CCCC1)C2(C)C)C(=O)C(N)=O (some centres unmarked) [Compound 11227] and CN(C[C@@H](NC(=O)N[C@H](C(=O)N1C[C@H]2[C@@H]([C@H]1C(=O)NC(CC1CC1)C(=O)C(N)=O)C2(C)C)C1CCCC1)C(C)(C)C)S(=O)(=O)c1cccs1 (some centres unmarked) [Compound 11230] cannot be ordered by pKi: at least 7.12 for the first, at least 7.12 for the second.

CC(C)N(C[C@@H](NC(=O)N[C@H](C(=O)N1C[C@H]2[C@@H]([C@H]1C(=O)NC(CC1CCC1)C(=O)C(N)=O)C2(C)C)C(C)(C)C)C(C)(C)C)S(=O)(=O)c1cccs1 (some centres unmarked) [Compound 11229] and C=CCNC(=O)C(=O)C(CC1CCC1)NC(=O)[C@@H]1[C@@H]2[C@H](CN1C(=O)[C@@H](NC(=O)N[C@H](CN(C(C)C)S(=O)(=O)c1cccs1)C(C)(C)C)C(C)(C)C)C2(C)C (some centres unmarked) [Compound 11238] cannot be ordered by pKi: at least 7.12 for the first, at least 7.12 for the second.

CN(C[C@@H](NC(=O)N[C@H](C(=O)N1C[C@H]2[C@@H]([C@H]1C(=O)NC(CC1CCC1)C(=O)C(N)=O)C2(C)C)C1CCCC1)C(C)(C)C)S(=O)(=O)c1cccs1 (some centres unmarked) [Compound 11231] and CN(C[C@@H](NC(=O)N[C@H](C(=O)N1C[C@H]2[C@@H]([C@H]1C(=O)NC(CC1CCC1)C(=O)C(N)=O)C2(C)C)C1(C)CCCCC1)C(C)(C)C)S(C)(=O)=O (some centres unmarked) [Compound 11252] cannot be ordered by pKi: at least 7.12 for the first, at least 7.12 for the second.

C#CCCC(NC(=O)[C@@H]1[C@@H]2[C@H](CN1C(=O)[C@@H](NC(=O)N[C@H](CN(CC)S(=O)(=O)c1cccs1)C(C)(C)C)C(C)(C)C)C2(C)C)C(=O)C(=O)NCC=C (some centres unmarked) [Compound 11232] and C=CCNC(=O)C(=O)C(CC1CC1)NC(=O)[C@@H]1[C@@H]2[C@H](CN1C(=O)[C@@H](NC(=O)N[C@H](CN(CC1CC1)S(=O)(=O)c1cccs1)C(C)(C)C)C(C)(C)C)C2(C)C (some centres unmarked) [Compound 11246] cannot be ordered by pKi: at least 7.12 for the first, at least 7.12 for the second.

CN(C1(CNC(=O)N[C@H](C(=O)N2C[C@H]3[C@@H]([C@H]2C(=O)NC(CC2CC2)C(=O)C(N)=O)C3(C)C)C(C)(C)C)CCCCC1)S(C)(=O)=O (some centres unmarked) [Compound 11234] and C=CCNC(=O)C(=O)C(CCC)NC(=O)[C@@H]1[C@@H]2[C@H](CN1C(=O)[C@@H](NC(=O)NCC1(N(C)S(C)(=O)=O)CCCCC1)C(C)(C)C)C2(C)C (some centres unmarked) [Compound 11235] cannot be ordered by pKi: at least 7.12 for the first, at least 7.12 for the second.

C=CCNC(=O)C(=O)C(CC1CC1)NC(=O)[C@@H]1[C@@H]2[C@H](CN1C(=O)[C@@H](NC(=O)N[C@H](CN(C)S(=O)(=O)c1cccs1)C1CCCCC1)C1CCCCC1)C2(C)C (some centres unmarked) [Compound 11236] and C=CCNC(=O)C(=O)C(CCCC)NC(=O)[C@@H]1[C@@H]2[C@H](CN1C(=O)[C@@H](NC(=O)N[C@H](CN(C)S(=O)(=O)c1cccs1)C1CCCCC1)C1CCCCC1)C2(C)C (some centres unmarked) [Compound 11239] cannot be ordered by pKi: at least 7.12 for the first, at least 7.12 for the second.

C=CCNC(=O)C(=O)C(CC1CC1)NC(=O)[C@@H]1[C@@H]2[C@H](CN1C(=O)[C@@H](NC(=O)N[C@H](CN(C)S(=O)(=O)c1sc(C)nc1C)C1CCCCC1)C1CCCCC1)C2(C)C (some centres unmarked) [Compound 11237] and C=CCNC(=O)C(=O)C(CCCC)NC(=O)[C@@H]1[C@@H]2[C@H](CN1C(=O)[C@@H](NC(=O)N[C@H](CN(C)S(=O)(=O)c1sc(C)nc1C)C1CCCCC1)C1CCCCC1)C2(C)C (some centres unmarked) [Compound 11242] cannot be ordered by pKi: at least 7.12 for the first, at least 7.12 for the second.

C=CCNC(=O)C(=O)C(CC1CC1)NC(=O)[C@@H]1[C@@H]2[C@H](CN1C(=O)[C@@H](NC(=O)N[C@H](CN(C(C)C)S(=O)(=O)c1cccs1)C(C)(C)C)C(C)(C)C)C2(C)C (some centres unmarked) [Compound 11240] and C=CCNC(=O)C(=O)C(CC1CCC1)NC(=O)[C@@H]1[C@@H]2[C@H](CN1C(=O)[C@@H](NC(=O)N[C@H](CN(CC1CC1)S(=O)(=O)c1cccs1)C(C)(C)C)C(C)(C)C)C2(C)C (some centres unmarked) [Compound 11243] cannot be ordered by pKi: at least 7.12 for the first, 6.60 to 7.12 for the second.

C=CCNC(=O)C(=O)C(CCCC)NC(=O)[C@@H]1[C@@H]2[C@H](CN1C(=O)[C@@H](NC(=O)N[C@H](CN(C)S(=O)(=O)C(C)(C)C)C(C)(C)C)C1Cc3ccccc3C1)C2(C)C (some centres unmarked) [Compound 11247] and C=CCNC(=O)C(=O)C(CCC)NC(=O)[C@@H]1[C@@H]2[C@H](CN1C(=O)[C@@H](NC(=O)N[C@H](CN(C)S(=O)(=O)C(C)(C)C)C(C)(C)C)C1Cc3ccccc3C1)C2(C)C (some centres unmarked) [Compound 11248] cannot be ordered by pKi: at least 7.12 for the first, at least 7.12 for the second.

CCCC(NC(=O)[C@@H]1[C@@H]2[C@H](CN1C(=O)[C@@H](NC(=O)N[C@H](CN(C)S(=O)(=O)c1cccs1)CC(C)(C)C)C(C)(C)C)C2(C)C)C(=O)C(N)=O (some centres unmarked) [Compound 11249] and C=CCNC(=O)C(=O)C(CCC)NC(=O)[C@@H]1[C@@H]2[C@H](CN1C(=O)[C@@H](NC(=O)N[C@H](CN(C)S(C)(=O)=O)C(C)(C)C)C1(C)CCCCC1)C2(C)C (some centres unmarked) [Compound 11254] cannot be ordered by pKi: at least 7.12 for the first, at least 7.12 for the second.

CN(C[C@@H](NC(=O)N[C@H](C(=O)N1C[C@H]2[C@@H]([C@H]1C(=O)NC(CC1CC1)C(=O)C(N)=O)C2(C)C)C1(C)CCCCC1)C(C)(C)C)S(C)(=O)=O (some centres unmarked) [Compound 11251] and C=CCNC(=O)C(=O)C(CC1CC1)NC(=O)[C@@H]1[C@@H]2[C@H](CN1C(=O)[C@@H](NC(=O)N[C@H](CN(C)S(C)(=O)=O)C(C)(C)C)C1(C)CCCCC1)C2(C)C (some centres unmarked) [Compound 11253] cannot be ordered by pKi: at least 7.12 for the first, at least 7.12 for the second.

C=CCNC(=O)C(=O)C(CCCC)NC(=O)[C@@H]1[C@@H]2[C@H](CN1C(=O)[C@@H](NC(=O)N[C@H](CN(C)S(C)(=O)=O)C(C)(C)C)C1(C)CCCCC1)C2(C)C (some centres unmarked) [Compound 11255] and C=CCNC(=O)C(=O)C(CCC(F)(F)F)NC(=O)[C@@H]1[C@@H]2[C@H](CN1C(=O)[C@@H](NC(=O)N[C@H](CN(C)S(C)(=O)=O)C(C)(C)C)C1(C)CCCCC1)C2(C)C (some centres unmarked) [Compound 11256] cannot be ordered by pKi: at least 7.12 for the first, at least 7.12 for the second.

pKi: −log10 of the molar value.
